Publication PMC5320532 (2017)

Experiments:
[1] = Intracellular compound accumulation (Kp) and intracellular bioavailability (Fic); conditions: human, mock-transfected HEK293 cells
P-gp [2] = experiment: as above; conditions: dog, P-gp-KO (CRISPR) MDCK cells
P-gp [3] = experiment: as above; conditions: dog, P-gp-transfected MDCK cells
P-gp [4] = experiment: as above; conditions: dog, MDCK II wild-type cells
[5] = as above; conditions: human, freshly isolated human hepatocytes in suspension
[6] = as above; conditions: human, human hepatocytes cultured for 24 h in monolayer format
[7] = tested on: mock-transfected HEK293 cells; experiment: as above; conditions: 0.1 μM, geometrical mean ± S.E.M.
[8] = tested on: freshly isolated human hepatocytes in suspension; experiment: as above; conditions: Suspension hepatocytes (freshly isolated human); geometrical mean ± S.E.M.
[9] = tested on: human hepatocytes cultured for 24 h in monolayer format; experiment: as above; conditions: Monolayer hepatocytes (human, 24 h culture); geometrical mean ± S.E.M.

Kp at 45 min, 0.1 μM [1]	Kp at 45 min, 0.5 μM (P-gp [2])	Kp at 45 min, 0.5 μM (P-gp [3])	Kp at 45 min (P-gp [4])	Kp at 45 min [5]	Kp at 24 h [6]	intracellular accumulation (Kp) [7]	intracellular accumulation (Kp) [8]	intracellular accumulation (Kp) [9]	SMILES
77 ± 10	108 ± 35	69 ± 4	85 ± 3	175 ± 54	616 ± 151	–	–	–	CC(C)c1nc(CN(C)C(=O)N[C@H](C(=O)N[C@@H](Cc2ccccc2)C[C@H](O)[C@H](Cc2ccccc2)NC(=O)OCc2cncs2)C(C)C)cs1 [Ritonavir]
–	–	–	–	60 ± 15	118 ± 10	–	–	–	O=C(O)C[C@H](O)C[C@H](O)/C=C/c1c(C2CC2)nc2ccccc2c1-c1ccc(F)cc1 [Pitavastatin]
–	–	–	–	66 ± 16	1540 ± 87	–	–	–	CC(C)NCC(O)COc1cccc2ccccc12 (stereo not shown) [Propranolol]
–	–	–	–	–	–	34±3	230±44	789±22	COCc1c(C(C)C)nc(C(C)C)c(/C=C/[C@@H](O)C[C@@H](O)CC(=O)O)c1-c1ccc(F)cc1 [Cerivastatin]
